Chains of the proteins cited; added tags and fusions are not shown. Residues count along the entry.
UniProt P56817, 46-501 limits assumed: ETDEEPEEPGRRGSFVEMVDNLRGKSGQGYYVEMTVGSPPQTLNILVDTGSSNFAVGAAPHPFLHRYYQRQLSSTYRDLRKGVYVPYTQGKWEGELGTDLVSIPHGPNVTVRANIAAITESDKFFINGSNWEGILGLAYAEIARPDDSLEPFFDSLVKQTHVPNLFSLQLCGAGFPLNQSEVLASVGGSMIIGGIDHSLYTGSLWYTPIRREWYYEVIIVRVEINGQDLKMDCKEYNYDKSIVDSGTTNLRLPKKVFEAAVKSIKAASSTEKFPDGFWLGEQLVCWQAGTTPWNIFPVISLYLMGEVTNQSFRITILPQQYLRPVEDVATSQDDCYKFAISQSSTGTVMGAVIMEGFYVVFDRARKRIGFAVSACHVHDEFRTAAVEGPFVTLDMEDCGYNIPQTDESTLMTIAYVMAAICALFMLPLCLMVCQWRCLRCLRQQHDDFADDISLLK

The compounds below were run against Human brain β-Secretase (Homo sapiens, UniProt P56817) (assay: MBP-C125 enzyme inhibition assay (ELISA detection of β-secretase cleavage of MBP-C125 substrate)). Settings: read-out: IC50 Group, pH 4.5, 37° C., 90 minutes, highest concentration 200 μM.
Method: Enzyme Inhibition Assay Purpose/Rationale:
The MBP-C125 assay, determines relative inhibition of β-secretase cleavage of an MPB-C125 substrate by the compounds assayed. Human brain β-Secretase from the concentrated HiQ pool prepared Jul. 16, 1997 in 0.20% Triton is used in the assay. Inhibition data was obtained from an ELISA which uses an anti-MBP capture antibody (on precoated and blocked 96-well high binding plates) followed by incubation with diluted enzyme reaction supernatant, incubation with an anti-SW192 specific biotinylated reporter antibody and incubation with streptavidin/alkaline phosphatase. Detection was effected by a fluorescent substrate signal on cleavage by the phosphatase. The ELISA only detected cleavage following Leu 596 at the substrate's Swedish APP 751 mutation site.
Compounds were diluted in a 1:1 dilution series to a six-point concentration curve (two wells per concentration) which took up one 96-plate row per compound tested.
Each of the test compounds was weighed out into a vial and DMSO was added to make up a 10 mM solution. To obtain a final compound concentration of 200 μM at the high point of a 6-point dilution curve, 100 μL of the 10 mM solution was added to well C1 of a 96-well V-bottom plate. Fifty μL of DMSO was added to odd wells of row C across the plate and 1:1 serial dilutions were made. 10 μL of each dilution was added to each of two wells on row C of a corresponding V-bottom plate to which 190 μL of 52 mM NaOAc/7.9% DMSO, pH 4.5 were pre-added. The NaOAc diluted compound plate was spun down to pellet precipitant and 20 μL/well was transferred to a corresponding flat-bottom plate to which 30 μL of ice-cold enzyme-substrate mixture (2.5 μL MBP-C125 substrate, 0.03 μL enzyme and 24.5 ice cold 0.09% TX100 per 30 μl) was added. The compound concentration in the final enzyme reaction was thus 50 times less than the starting concentration. The final reaction mixture of 200 μM compound for the highest curve point was in 5% DMSO, 20 mM NaAc, 0.06% TX100, at pH 4.5. The enzyme reaction was started by warming the plates to 37° C. After 90 minutes at 37° C., 200 μL/well cold specimen diluent was added to stop the reaction and 20 μL/well was transferred to a corresponding α-MBP coated ELISA plate, containing 80 μL/well specimen diluent. This reaction was incubated overnight at 4° C. and the ELISA was developed the next day using a 2 hr. incubation with α-192SW followed by Streptavidin-AP conjugate and flourescent substrate. The signal was read on a fluorescent plate reader.
Compound `CSCCC(NC(=O)C(NC(=O)OC(C)(C)C)C(C)C)C(=O)NC(CC(C)C)C(O)CC(=O)NC(C(=O)N1CCC(CC(=O)O)CC1)C(C)C` (centres unmarked) has an IC50 of 10 to 99 µM.
Compound `CCNC(=O)C(NC(=O)CC(O)C(CC(C)C)NC(=O)[C@H](CCSC)NC(=O)[C@@H](NC(=O)OC(C)(C)C)C(C)C)C(C)C` (some centres unmarked) has an IC50 of 100 to 200 µM.
`CSCCC(NC(=O)C(NC(=O)OC(C)(C)C)C(C)C)C(=O)NC(CC(C)C)C(O)CC(=O)NC(C(=O)NCc1ccc(C(=O)O)cc1)C(C)C` (centres unmarked) gave an IC50 of less than 10 µM.
`CSCC[C@H](NC(=O)[C@@H](NC(=O)OC(C)(C)C)C(C)C)C(=O)NC(CC(C)C)C(O)CC(=O)NC(C(=O)NCc1cccc(C(=O)O)c1)C(C)C` (some centres unmarked) showed an IC50 of less than 10 µM.
Work on `CSCC[C@H](NC(=O)[C@@H](NC(=O)OC(C)(C)C)C(C)C)C(=O)NC(CC(C)C)C(O)CC(=O)NC(C(=O)NCc1ccc(C(N)=O)cc1)C(C)C` (some centres unmarked) yielded an IC50 of 10 to 99 µM.
`CSCC[C@H](NC(=O)[C@@H](NC(=O)OC(C)(C)C)C(C)C)C(=O)NC(CC(C)C)C(O)CC(=O)NC(C(=O)NCc1ncc(C(=O)O)s1)C(C)C` (some centres unmarked) was tested, and the IC50 was 10 to 99 µM.
For `CSCC[C@H](NC(=O)[C@@H](NC(=O)OC(C)(C)C)C(C)C)C(=O)NC(CC(C)C)C(O)CC(=O)NC(C(=O)NC1CC(C(=O)O)CC(C(=O)O)C1)C(C)C` (some centres unmarked), the IC50 was less than 10 µM.
Work on `CSCC[C@H](NC(=O)[C@@H](NC(=O)OC(C)(C)C)C(C)C)C(=O)NC(CC(C)C)C(O)CC(=O)NC(C(=O)NC(CCC(=O)O)C(=O)O)C(C)C` (some centres unmarked) yielded an IC50 of less than 10 µM.
With `CSCC[C@H](NC(=O)[C@@H](NC(=O)OC(C)(C)C)C(C)C)C(=O)NC(CC(C)C)C(O)CC(=O)NC(C(=O)NCCCC(=O)O)C(C)C` (some centres unmarked) the IC50 was 10 to 99 µM.
`CSCC[C@H](NC(=O)[C@@H](NC(=O)OC(C)(C)C)C(C)C)C(=O)NC(CC(C)C)C(O)CC(=O)NC(C(=O)O)C(C)C` (some centres unmarked) showed an IC50 of 100 to 200 µM.
For `CSCC[C@H](NC(=O)[C@@H](NC(=O)OC(C)(C)C)C(C)C)C(=O)NC(CC(C)C)C(O)CC(=O)NC(C(=O)NC1(C(=O)O)CC1)C(C)C` (some centres unmarked), the IC50 was 10 to 99 µM.
`CSCC[C@H](NC(=O)[C@@H](NC(=O)OC(C)(C)C)C(C)C)C(=O)NC(CC(C)C)C(O)CC(=O)NC(C(=O)NCCCCO)C(C)C` (some centres unmarked) gave an IC50 of 100 to 200 µM.
`CSCC[C@H](NC(=O)[C@@H](NC(=O)OC(C)(C)C)C(C)C)C(=O)NC(CC(C)C)C(O)CC(=O)NC(C(=O)NC(CCC(N)=O)C(N)=O)C(C)C` (some centres unmarked) gave an IC50 greater than 200 µM.
Work on `CSCC[C@H](NC(=O)[C@@H](NC(=O)OC(C)(C)C)C(C)C)C(=O)NC(CC(C)C)C(O)CC(=O)NC(C(=O)NC1CCC(C(=O)O)CC1)C(C)C` (some centres unmarked) yielded an IC50 of less than 10 µM.
`CCCCCNC(=O)C(NC(=O)CC(O)C(CC(C)C)NC(=O)[C@H](CCSC)NC(=O)[C@@H](NC(=O)OC(C)(C)C)C(C)C)C(C)C` (some centres unmarked) showed an IC50 greater than 200 µM.
`CSCC[C@H](NC(=O)[C@@H](NC(=O)OC(C)(C)C)C(C)C)C(=O)NC(CC(C)C)C(O)CC(=O)NC(C(=O)NCc1ccccc1)C(C)C` (some centres unmarked) was tested, and the IC50 was greater than 200 µM.
`COC(=O)CCCNC(=O)C(NC(=O)CC(O)C(CC(C)C)NC(=O)[C@H](CCSC)NC(=O)[C@@H](NC(=O)OC(C)(C)C)C(C)C)C(C)C` (some centres unmarked) was tested, and the IC50 was 10 to 99 µM.
For `CSCC[C@H](NC(=O)[C@@H](NC(=O)OC(C)(C)C)C(C)C)C(=O)NC(CC(C)C)C(O)CC(=O)NC(C(=O)NCCNC(C)=O)C(C)C` (some centres unmarked), the IC50 was 100 to 200 µM.
`CSCC[C@H](NC(=O)[C@@H](NC(=O)OC(C)(C)C)C(C)C)C(=O)NC(CC(C)C)C(O)CC(=O)NC(C(=O)Nc1ccc(F)cc1)C(C)C` (some centres unmarked) gave an IC50 of 100 to 200 µM.
Compound `CSCC[C@H](NC(=O)[C@@H](NC(=O)OC(C)(C)C)C(C)C)C(=O)NC(CC(C)C)C(O)CC(=O)NC(C(=O)NCCC(=O)O)C(C)C` (some centres unmarked) has an IC50 of 10 to 99 µM.
`COC(=O)C(NC(=O)CC(O)C(CC(C)C)NC(=O)[C@H](CCSC)NC(=O)[C@@H](NC(=O)OC(C)(C)C)C(C)C)C(C)C` (some centres unmarked) was tested, and the IC50 was greater than 200 µM.
In the case of `CSCCC(NC(=O)C(NC(=O)OC(C)(C)C)C(C)C)C(=O)NC(CC(C)C)C(O)CC(=O)NC(C(=O)NC1CCOC1=O)C(C)C` (centres unmarked), the IC50 is reported as 10 to 99 µM.
Compound `CSCCC(NC(=O)C(NC(=O)OC(C)(C)C)C(C)C)C(=O)NC(CC(C)C)C(O)CC(=O)NC(C(=O)NCc1ccncc1)C(C)C` (centres unmarked) has an IC50 of 100 to 200 µM.
Compound `COC(=O)CCNC(=O)C(NC(=O)CC(O)C(CC(C)C)NC(=O)[C@H](CCSC)NC(=O)[C@@H](NC(=O)OC(C)(C)C)C(C)C)C(C)C` (some centres unmarked) has an IC50 of 100 to 200 µM.
`CSCC[C@H](NC(=O)[C@@H](NC(=O)OC(C)(C)C)C(C)C)C(=O)NC(CC(C)C)C(O)CC(=O)NC(C(=O)NC1CCC(CC(=O)O)CC1)C(C)C` (some centres unmarked) gave an IC50 of less than 10 µM.
`CSCCC(NC(=O)C(NC(=O)OC(C)(C)C)C(C)C)C(=O)NC(CC(C)C)C(O)CC(=O)NC(C(=O)N(C)Cc1ccc(C(=O)O)cc1)C(C)C` (centres unmarked) showed an IC50 of 10 to 99 µM.
Work on `CCOC(=O)N1CCN(C(=O)C(NC(=O)CC(O)C(CC(C)C)NC(=O)C(CCSC)NC(=O)C(NC(=O)OC(C)(C)C)C(C)C)C(C)C)CC1` (centres unmarked) yielded an IC50 of 100 to 200 µM.
`CSCC[C@H](NC(=O)[C@@H](NC(=O)OC(C)(C)C)C(C)C)C(=O)NC(CC(C)C)C(O)CC(=O)NC(C(=O)NC1CC(C(=O)O)CCC1C(=O)O)C(C)C` (some centres unmarked) showed an IC50 of 10 to 99 µM.
`CSCC[C@H](NC(=O)[C@@H](NC(=O)OC(C)(C)C)C(C)C)C(=O)NC(CC(C)C)C(O)CC(=O)NC(C(=O)Nc1cccc(C(=O)O)c1)C(C)C` (some centres unmarked) was tested, and the IC50 was 10 to 99 µM.

Source: US7169759B1, “Tetrapeptide inhibitors of β-secretase” (Elan Pharmaceuticals, Inc., priority 1999, dated 2007)
